Molecular target: Prostaglandin G/H synthase 1 (Homo sapiens, UniProt P23219)
Format: cell-based, COS

Sequences of proteins named here, by UniProt entry; tags and fusion partners are left off.
UniProt P23219, whole entry: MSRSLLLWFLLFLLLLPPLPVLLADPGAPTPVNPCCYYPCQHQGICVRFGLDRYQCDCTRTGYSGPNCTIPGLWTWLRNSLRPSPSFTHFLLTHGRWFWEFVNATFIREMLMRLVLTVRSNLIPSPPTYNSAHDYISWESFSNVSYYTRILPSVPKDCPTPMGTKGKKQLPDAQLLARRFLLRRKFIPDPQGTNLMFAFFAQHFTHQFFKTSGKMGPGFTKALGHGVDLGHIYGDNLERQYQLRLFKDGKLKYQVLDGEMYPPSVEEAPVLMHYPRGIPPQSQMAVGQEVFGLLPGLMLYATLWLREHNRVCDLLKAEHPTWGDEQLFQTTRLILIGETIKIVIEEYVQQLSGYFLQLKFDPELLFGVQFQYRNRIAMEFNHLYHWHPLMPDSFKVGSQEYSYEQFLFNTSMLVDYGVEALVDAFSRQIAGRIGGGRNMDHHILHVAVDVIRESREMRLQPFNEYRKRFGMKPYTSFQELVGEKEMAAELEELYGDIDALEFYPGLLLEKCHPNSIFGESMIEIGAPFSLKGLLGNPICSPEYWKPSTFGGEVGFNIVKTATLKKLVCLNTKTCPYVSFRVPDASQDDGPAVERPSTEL

IC50: > 100 µM
SMILES: Cc1onc(-c2ccccc2)c1-c1ccc(S(N)(=O)=O)cc1 [VALDECOXIB]
